# Binding of CDR-mutated scFvs to a peptide of the spike HR2 region

Antigen: PDVDLGDISGINAS, a 14-residue peptide of the SARS-CoV-2 spike HR2 region.

Ab-14 is the parent antibody, in scFv form: VH, then a (GGGGS)3 linker, then VL. The light chain is unchanged in all variants.
VH: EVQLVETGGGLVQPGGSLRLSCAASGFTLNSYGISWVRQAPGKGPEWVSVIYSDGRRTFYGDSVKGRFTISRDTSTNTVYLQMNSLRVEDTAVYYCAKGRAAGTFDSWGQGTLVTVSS
VL: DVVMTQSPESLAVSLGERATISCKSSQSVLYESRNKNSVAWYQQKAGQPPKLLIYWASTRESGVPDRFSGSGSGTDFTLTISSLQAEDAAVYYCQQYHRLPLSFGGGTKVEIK

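The starting antibody came from a phage panning campaign against this peptide. This is the validation round: designs drawn from the data on random variants, tested in the same kind of assay. Their group label is 14H_En_HC (En: ensemble of fine-tuned language models; HC: hill climbing; a sequence that several methods proposed may carry one label only). The scFvs were displayed on barcoded MATa yeast, the peptide on MATalpha yeast. After mating in shaken culture at 30 °C for 16 h, diploids were selected and their barcode pairs sequenced. Each replicate has its own calibration line, from reference interactions of the BCL2 family. The assay was run in six technical replicates.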

The parent's heavy chain CDRs are GFTLNSYGIS, VIYSDGRRTFYGDSVK, GRAAGTFDS; each variant's own CDRs replace them letter for letter. Values are log10 of the apparent Kd in nM; lower means stronger binding. "nd" marks a missing value. The strain was present, yet no cells mated with the target were sequenced in that replicate, which points to weak or no binding. Nonspecific signal, from three strains lacking the peptide, appeared in 1% of pairings of all heavy chain designs, centred on 2.08 (5% of these signals below 0.84); values are not corrected for it. For each scFv, signals with the empty controls are counted beside the result, with their mean in brackets.

| # | CDR-H1 | CDR-H2 | CDR-H3 | log10 Kd, replicates | empty controls |
|---|---|---|---|---|---|
| 1 | GFNLDEYGIS | VIYADGRRTFYSDNVK | GEHAGTFDI | -0.19 / 0.12 / -0.56 / -0.36 / -0.44 / -0.18 | 1/18 (3.40) |
| 2 | GFDLNEYGIS | VIYADGIRTFYTDSVK | GEVAGTFDS | -0.65 / -0.15 / -0.57 / -0.39 / 0.11 / -0.03 | 0/18 |
| 3 | GFNLDEYGIS | VIYADGRRTFYSDSVK | GEVAGTFDI | -0.49 / -0.34 / -0.32 / -0.59 / -0.57 / 0.20 | 0/18 |
| 4 | GFDLEDYGIS | VIYADGRRTFYADSVK | GNVAGTFDK | 0.68 / 0.35 / 0.53 / 0.44 / 0.73 / 0.46 | 0/18 |
| 5 | GFDLNEYGIS | VIYADGKRTFYADSVK | GKNAGTFDQ | -0.53 / -0.38 / -0.04 / -0.80 / -0.98 / -0.60 | 0/18 |
| 6 | GFDLNEYGIS | VIYADGRRTFYSDSVK | GNVAGTFDK | -0.30 / -0.91 / -0.31 / -1.08 / -0.70 / -0.65 | 0/18 |
| 7 | GFDLDEYGIS | VIYADGMRTFYADSVK | GNTAGTFLS | 0.07 / 0.01 / -0.16 / 0.27 / -0.97 / -0.09 | 0/18 |
| 8 | GFDLNEYGIS | VIYADGRRTYYADSVK | GTNAGTFDQ | -0.20 / -0.76 / -0.95 / -1.22 / -0.70 / -0.86 | 0/18 |
| 9 | GFDLNEYGIS | VIYADGQRTAYADSVK | GTVAGTFDS | 0.03 / -0.24 / -0.47 / -0.63 / -0.50 / -0.30 | 0/18 |
| 10 | GFDLDEYGIS | VIYADGRRTFYIDSVK | GETAGTFDQ | -1.05 / -0.77 / -0.74 / -0.37 / -0.68 / -0.41 | 0/18 |
| 11 | GFDLNEYGIS | VIYADGKRTSYADSVK | GEAAGTFDV | 0.28 / -0.01 / -0.41 / -0.28 / 0.48 / 0.21 | 2/18 (1.95) |
| 12 | GFDLNEYGIS | VIYADGRRTFYSDSFK | GEIAGTFDQ | 1.68 / -0.05 / -0.32 / 0.04 / -0.35 / -0.46 | 1/18 (1.59) |
| 13 | GFDLNEYGIS | VIYADGVRTAYSDSVK | GEAGGTFDV | 0.27 / 0.22 / 0.10 / -0.19 / 0.18 / 0.72 | 0/18 |
| 14 | GFDLNEYGIS | VIYADGKRTFYVDSVK | GENAGTFDV | -0.01 / -0.08 / -0.42 / -0.30 / -0.34 / -0.06 | 0/18 |
| 15 | GFDLNEYGIS | VIYADGRRTFYSDSVK | GKAAGTFDQ | -0.54 / -0.85 / -0.40 / -0.74 / -0.45 / -0.66 | 0/18 |
| 16 | GFDLNEYGIS | VIYADGRRTFYTDSVK | GNLAGTFDV | -0.82 / -0.48 / -0.29 / -1.11 / -1.10 / -0.85 | 0/18 |
| 17 | GFDLNEYGIS | VIYADGMRTQYIDSVK | GNVAGTFDV | 0.48 / 0.11 / 0.53 / 1.59 / 0.13 / 1.17 | 0/18 |
| 18 | GFNLNEYGIS | VIYADGMRTFYTDSVK | GEVAGTFDN | 0.41 / 0.31 / 0.04 / -0.40 / 0.14 / 0.27 | 0/18 |
| 19 | GFQLDEYGIS | VIYADGKRTFYQDSVK | GEVAGTFDV | -0.54 / -0.84 / -0.60 / -0.89 / -0.78 / -0.53 | 2/18 (1.27) |
| 20 | GFDLEEYGIS | VIYADGRRTAYIDSVK | GEAAGTFDV | -0.03 / -0.16 / 0.07 / -0.02 / -0.30 / -0.10 | 0/18 |
| 21 | GFDLNEYGIS | VIYADGRRTFYKDSVK | GTNAGTFDV | -0.21 / -0.46 / -0.69 / -0.64 / -0.39 / -0.36 | 0/18 |
| 22 | GFDLNEYGIS | VIYADGMRTFYADSVK | GTNAGTFDQ | -0.77 / 0.60 / 0.14 / -0.40 / -0.15 / -0.41 | 0/18 |
| 23 | GFDLNEYGIS | VIYADGRRTFYSDSVK | GEIAGFFDV | nd / nd / nd / nd / 2.88 / nd | 0/18 |
| 24 | GFDLNEYGIS | VIYADGRRTAYTDSVK | GEAAGTFDV | 0.23 / 0.38 / 0.18 / -0.02 / 0.03 / -0.26 | 0/18 |
| 25 | GFDLNEYGIS | VIYADGRRTAYSDSVK | GEMGGTFDV | -0.07 / -0.22 / 0.06 / -0.04 / 0.56 / 0.06 | 0/18 |
| 26 | GFDLNEYGIS | VIYADGKRTFYADSVK | GEIAGTFDQ | 0.44 / 0.80 / -0.40 / -0.10 / 0.19 / 0.15 | 0/18 |
| 27 | GFNLNEYGIS | VIYADGRRTFYTDSVK | GEFAGTFDQ | -0.31 / -0.64 / -0.71 / -0.94 / -0.73 / 0.31 | 0/18 |
| 28 | GFDLNEYGIS | VIYADGMRTAYTDSVK | GNEAGTFDG | 0.43 / 0.50 / 0.34 / 0.54 / 0.10 / 0.48 | 1/18 (2.32) |
| 29 | GFDLNEYGIS | VIYADGRRTFYADSFK | GEIAGTFDQ | -0.29 / -0.59 / -0.47 / -0.32 / -1.04 / -0.15 | 0/18 |
| 30 | GFDLNEYGIS | VIYADGVRTFYADSVK | GNAAGTFDV | -0.22 / -0.60 / -0.17 / -0.54 / -0.66 / 0.02 | 0/18 |

The parent sequence was in this pool as ten entries: three were never detected, three once, and four in most replicates, with averages from 0.34 to 2.37. In the paper, a design with two or fewer of six values counts as a poor binder. A sequence measured in both rounds can read differently, since the two assays cover different ranges.

Data: MIT Lincoln Laboratory AlphaSeq set, Li et al. 2023, doi:10.1038/s41467-023-39022-2, as distributed in FLAb.